The text below walks through data of patent US20080026996A1, “Selective Vpac2 Receptor Reptide Agonists” (ELI LILLY AND COMPANY, priority 2004, published 2008).

By UniProt entry, the sequences of proteins in these tests, tags left out. Residues count along the entry.
UniProt P32241, 31-457: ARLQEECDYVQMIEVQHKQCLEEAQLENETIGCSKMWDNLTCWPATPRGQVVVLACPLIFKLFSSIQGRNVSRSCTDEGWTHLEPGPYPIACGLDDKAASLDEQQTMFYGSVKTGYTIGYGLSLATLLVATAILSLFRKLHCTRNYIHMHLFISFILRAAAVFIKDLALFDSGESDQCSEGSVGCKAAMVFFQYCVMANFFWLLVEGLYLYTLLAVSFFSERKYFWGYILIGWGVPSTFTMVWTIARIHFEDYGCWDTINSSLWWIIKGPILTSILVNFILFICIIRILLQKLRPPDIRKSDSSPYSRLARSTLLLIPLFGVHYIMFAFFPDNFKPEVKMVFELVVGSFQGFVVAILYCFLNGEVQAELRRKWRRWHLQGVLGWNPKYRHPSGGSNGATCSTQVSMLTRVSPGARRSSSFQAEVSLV

By EC50 is commonly meant the midpoint of the concentration-response curve. Lower therefore signals higher potency in that assay. The IC50 is the point on the concentration scale where inhibition reaches its midpoint. Higher therefore signals a need for much substance.

The target in series [1] is T1, human VPAC2 (Homo sapiens, UniProt P41587).
T1 construct: expressed in transfected cells
T1 sequence (P41587 24-438): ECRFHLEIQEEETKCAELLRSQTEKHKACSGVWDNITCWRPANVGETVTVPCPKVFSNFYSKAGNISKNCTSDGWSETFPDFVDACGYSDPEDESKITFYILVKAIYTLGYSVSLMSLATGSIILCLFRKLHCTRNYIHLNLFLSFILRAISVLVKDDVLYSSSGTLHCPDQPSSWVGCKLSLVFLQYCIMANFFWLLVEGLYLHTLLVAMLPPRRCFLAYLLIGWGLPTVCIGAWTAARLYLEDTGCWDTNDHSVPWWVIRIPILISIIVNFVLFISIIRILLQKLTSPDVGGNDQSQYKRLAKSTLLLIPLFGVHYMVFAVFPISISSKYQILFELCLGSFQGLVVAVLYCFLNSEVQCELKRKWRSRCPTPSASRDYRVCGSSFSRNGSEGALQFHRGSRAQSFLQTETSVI
The experiment in a line: Alpha screen cAMP in vitro potency, human VPAC2 receptor. It is filed as cell-based. The procedure: Alpha screen: Cells are washed in the culture flask once with PBS. Then, the cells are rinsed with enzyme free dissociation buffer. The dissociated cells are removed. The cells are then spun down and washed in stimulation buffer. For each data point, 50,000 cells suspended in stimulation buffer are used. To this buffer, Alpha screen acceptor beads are added along with the stimuli. This mixture is incubated for 60 minutes. Lysis buffer and Alpha screen donor beads are added and are incubated for 60 to 120 minutes. The Alpha screen signal (indicative of intracellular cAMP levels) is read in a suitable instrument (e.g. AlphaQuest from Perkin-Elmer). Steps including Alpha screen donor and acceptor beads are performed in reduced light.

In series [2] the target is T1, human VPAC2. The series can be described thus: Filter binding assay, membranes of stable VPAC2 cell line, 125I-labeled VIP tracer (Table 2). The procedure: (§1) For this assay, the solutions and equipment include:
(§2) Presoak solution: 0.5% Polyethyleneamine in Aqua dest.
(§3) Buffer for flushing filter plates: 25 mM HEPES pH 7.4
(§4) Blocking buffer: 25 mM HEPES pH 7.4; 0.2% protease free BSA
(§5) Assay buffer: 25 mM HEPES pH 7.4; 0.5% protease free BSA
(§6) Dilution and assay plate: PS-Microplate, U form
(§7) Filtration Plate Multiscreen FB Opaque Plate; […] Type B Glasfiber filter
(§8) In order to prepare the filter plates, aspirate the presoak solution by vacuum filtration. Flush the plates twice with 200 μL flush buffer. Add 200 μL blocking buffer to the filter plate. The filter plate is then incubated […] for 1 hour at room temperature.
(§9) Fill the assay plate with 25 μL assay buffer, 25 μL membranes (2.5 μg) suspended in assay buffer, 25 μL compound (agonist) in assay buffer, and 25 μL tracer (about 40000 cpm) in assay buffer. Incubate the filled plate for 1 hour with shaking.
(§10) Conduct the transfer from assay plate to filter plate. Aspirate the blocking buffer by vacuum filtration and wash two times with flush buffer. Transfer 90 μL from the assay plate to the filter plate. Aspirate the 90 μL transferred from assay plate and wash three times with 200 μL flush buffer. Remove the plastic support. Dry for 1 hour at 60° C. Add 30 μL Microscint. Perform the count.

A short description of series [3]: Rat serum stability studies (remaining active peptide by DiscoveRx cAMP on CHO-VPAC2 cells). It is filed as in vitro ADME. Particulars: 37° C.; for Rat Serum Stability (estimated purity in % after 18 hours): 10 μM peptide in rat serum, versus 4° C. aliquot with aprotinin. The procedure:
Store the aliquot with aprotinin at 4° C. Store the aliquot without aprotinin at 37° C. […] […] Incubate in room temperature for 30 minutes. Remove the supernatant. […] Incubate on the shaker (300 rpm) for 1 hour. Proceed as normal with the DiscoveRx kit. Include cAMP standards in column 12. Determine EC50 values from the cAMP assay data.

The next series has as its target human VPAC1 (Homo sapiens, UniProt P32241). The series can be described thus: Filter binding assay, membranes of cells transiently transfected with human VPAC1, 125I-labeled VIP tracer (Table 2). On the set-up: expressed in transfected cells. The procedure:
as §1, §2, §3, §4, §5, §6, §7, §8, §9, §10

Another series concerns the target T2, rat VPAC2 receptor (Rattus norvegicus, UniProt P35000).
T2 sequence (P35000 23-437): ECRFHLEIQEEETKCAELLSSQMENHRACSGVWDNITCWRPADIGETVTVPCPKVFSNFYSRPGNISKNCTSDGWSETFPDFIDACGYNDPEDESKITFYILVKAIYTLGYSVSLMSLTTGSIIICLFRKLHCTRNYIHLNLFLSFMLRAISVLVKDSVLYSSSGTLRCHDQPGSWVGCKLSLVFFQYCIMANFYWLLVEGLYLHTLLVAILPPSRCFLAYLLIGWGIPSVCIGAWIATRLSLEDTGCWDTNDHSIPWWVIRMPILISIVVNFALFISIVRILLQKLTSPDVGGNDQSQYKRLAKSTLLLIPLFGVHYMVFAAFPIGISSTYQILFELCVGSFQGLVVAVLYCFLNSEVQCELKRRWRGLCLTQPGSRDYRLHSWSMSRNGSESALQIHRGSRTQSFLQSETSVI
The experiment in a line: DiscoveRx in vitro potency, CHO-PO cells transiently transfected with rat VPAC 2 receptor DNA. Also noted: expressed in transfected cells; host or cells: CHO-PO, transient. It is filed as cell-based. The procedure: Also, the cells are washed twice. […] The stimuli are present for 30 minutes. Then, the assay buffer is gently removed.

SMILES strings stand for the structures.

Turning to `CCCCCC(=O)N[C@@H](Cc1c[nH]cn1)C(=O)N[C@@H](CO)C(=O)N[C@@H](CC(=O)O)C(=O)N[C@@H](C)C(=O)N[C@H](C(=O)N[C@@H](Cc1ccccc1)C(=O)N[C@H](C(=O)N[C@@H](CC(=O)O)C(=O)N[C@@H](CC(N)=O)C(=O)N[C@@H](Cc1ccc(O)cc1)C(=O)N[C@H](C(=O)N[C@@H](CCCN)C(=O)N[C@@H](CC(C)C)C(=O)N[C@@H](CCCNC(=N)N)C(=O)NC(C)(C)C(=O)N[C@@H](CCC(N)=O)C(=O)N[C@H](C(=O)N[C@@H](C)C(=O)N[C@@H](C)C(=O)NC(C)(C)C(=O)N[C@@H](CCCCN)C(=O)N[C@@H](Cc1ccc(O)cc1)C(=O)N[C@@H](CC(C)C)C(=O)N[C@@H](CCC(N)=O)C(=O)N[C@@H](CO)C(=O)N[C@H](C(=O)N[C@@H](CCCCNC(=N)N)C(=O)N[C@@H](CCCCNC(=N)N)C(=O)NCC(=O)NCC(=O)N1CCC[C@H]1C(=O)N[C@@H](CO)C(=O)N[C@@H](CO)C(=O)NCC(=O)N[C@@H](C)C(=O)N1CCC[C@H]1C(=O)N1CCC[C@H]1C(=O)N1CCC[C@H]1C(=O)N[C@@H](CO)C(=O)O)[C@@H](C)CC)C(C)C)[C@@H](C)O)[C@@H](C)O)C(C)C` [Agonist P335], the half-maximal effective concentration (EC50) on human VPAC2 [1] was determined as 0.22 nM; at rat VPAC2 receptor, 0.05 nM. Besides, the IC50 at human VPAC2 [2] is 0.39 nM; on human VPAC1, more than 3000 nM. For the same compound, in series [3], the “Rat Serum Stability (estimated purity in % after 18 hours)” value is recorded as 98.66%. For the same compound, the “Rat Serum Stability (Estimated purity in % after 72 hours)” value in series [3] (rat serum, 72 hours) was 22.0%.
`CCCCCC(=O)N[C@@H](Cc1c[nH]cn1)C(=O)N[C@@H](CO)C(=O)N[C@@H](CC(=O)O)C(=O)N[C@@H](C)C(=O)N[C@H](C(=O)N[C@@H](Cc1ccccc1)C(=O)N[C@H](C(=O)N[C@@H](CC(=O)O)C(=O)N[C@@H](CC(N)=O)C(=O)N[C@@H](Cc1ccc(O)cc1)C(=O)N[C@H](C(=O)N[C@@H](CCCNC(=N)N)C(=O)N[C@@H](CC(C)C)C(=O)N[C@@H](CCCNC(=N)N)C(=O)NC(C)(C)C(=O)N[C@@H](CCC(N)=O)C(=O)N[C@H](C(=O)N[C@@H](C)C(=O)N[C@@H](C)C(=O)NC(C)(C)C(=O)N[C@@H](CCCCN)C(=O)N[C@@H](Cc1ccc(O)cc1)C(=O)N[C@@H](CC(C)C)C(=O)N[C@@H](CCC(N)=O)C(=O)N[C@@H](CO)C(=O)N[C@H](C(=O)N[C@@H](CCCCN)C(=O)NC(C)(C)C(=O)N[C@@H](CCCCN)C(=O)NCC(=O)NCC(=O)N1CCC[C@H]1C(=O)N[C@@H](CO)C(=O)N[C@@H](CO)C(=O)NCC(=O)N[C@@H](C)C(=O)N1CCC[C@H]1C(=O)N1CCC[C@H]1C(=O)N1CCC[C@H]1C(=O)N[C@@H](CO)C(=O)O)[C@@H](C)CC)C(C)C)[C@@H](C)O)[C@@H](C)O)C(C)C` [Agonist P349] returned an EC50 on human VPAC2 [1] of 0.08 nM. For the same compound, in series [3], the “Rat Serum Stability (estimated purity in % after 18 hours)” value is listed as 41.22%.
For `CCCCCC(=O)N[C@@H](Cc1c[nH]cn1)C(=O)N[C@@H](CO)C(=O)N[C@@H](CC(=O)O)C(=O)N[C@@H](C)C(=O)N[C@H](C(=O)N[C@@H](Cc1ccccc1)C(=O)N[C@H](C(=O)N[C@@H](CC(=O)O)C(=O)N[C@@H](CC(N)=O)C(=O)N[C@@H](Cc1ccc(O)cc1)C(=O)N[C@H](C(=O)N[C@@H](CCCNC(=N)N)C(=O)N[C@@H](CC(C)C)C(=O)N[C@@H](CCCNC(=N)N)C(=O)NC(C)(C)C(=O)N[C@@H](CCC(N)=O)C(=O)N[C@H](C(=O)N[C@@H](C)C(=O)N[C@@H](C)C(=O)NC(C)(C)C(=O)N[C@@H](CCCCN)C(=O)N[C@@H](Cc1ccc(O)cc1)C(=O)N[C@@H](CC(C)C)C(=O)N[C@@H](CCC(N)=O)C(=O)N[C@@H](CO)C(=O)N[C@H](C(=O)N[C@H](CCCCN)C(=O)N[C@H](CCCCN)C(=O)NCC(=O)NCC(=O)N1CCC[C@H]1C(=O)N[C@@H](CO)C(=O)N[C@@H](CO)C(=O)NCC(=O)N[C@@H](C)C(=O)N1CCC[C@H]1C(=O)N1CCC[C@H]1C(=O)N1CCC[C@H]1C(=O)N[C@@H](CO)C(=O)O)[C@@H](C)CC)C(C)C)[C@@H](C)O)[C@@H](C)O)C(C)C` [Agonist P353], a half-maximal effect on human VPAC2 [1] (EC50) was put at 0.18 nM. Also, the “Rat Serum Stability (estimated purity in % after 18 hours)” value in series [3] is recorded as 31.23%.
`CCCCCC(=O)N[C@@H](Cc1c[nH]cn1)C(=O)N[C@@H](CO)C(=O)N[C@@H](CC(=O)O)C(=O)N[C@@H](C)C(=O)N[C@H](C(=O)N[C@@H](Cc1ccccc1)C(=O)N[C@H](C(=O)N[C@@H](CC(=O)O)C(=O)N[C@@H](CC(N)=O)C(=O)N[C@@H](Cc1ccc(O)cc1)C(=O)N[C@H](C(=O)N[C@@H](CCCNC(=N)N)C(=O)N[C@@H](CC(C)C)C(=O)N[C@@H](CCCNC(=N)N)C(=O)NC(C)(C)C(=O)N[C@@H](CCC(N)=O)C(=O)N[C@H](C(=O)N[C@@H](C)C(=O)N[C@@H](C)C(=O)NC(C)(C)C(=O)N[C@@H](CCCCN)C(=O)N[C@@H](Cc1ccc(O)cc1)C(=O)N[C@@H](CC(C)C)C(=O)N[C@@H](CCC(N)=O)C(=O)N[C@@H](CO)C(=O)N[C@H](C(=O)N[C@@H](CCCCN)C(=O)N[C@@H](CCCCNC(=N)N)C(=O)NCC(=O)NCC(=O)N1CCC[C@H]1C(=O)N[C@@H](CO)C(=O)N[C@@H](CO)C(=O)NCC(=O)N[C@@H](C)C(=O)N1CCC[C@H]1C(=O)N1CCC[C@H]1C(=O)N1CCC[C@H]1C(=O)N[C@@H](CO)C(=O)O)[C@@H](C)CC)C(C)C)[C@@H](C)O)[C@@H](C)O)C(C)C` [Agonist P354] came in with an EC50 on human VPAC2 [1] of 0.14 nM. In addition, the “Rat Serum Stability (estimated purity in % after 18 hours)” value in series [3] is on record as 15.10%.
